What was measured:
[1] = biological target: T1, Y4 receptors (Homo sapiens, UniProt P50391); settings: Michel et al. 1998; cited from earlier work
[2] = biological target: T1, Y4 receptors; test: Human Y4 receptor potency assay (inositol phosphate turnover, transfected COS-7 cells); assay type: cell-based; design: expressed in transfected cells; host or cells: COS-7 cells, transient transfection; settings: ratio of potencies, Y2 vs Y4 potency assays
Description: Potency of the test compounds on the human Y2 receptor is determined by performing dose-response experiments in COS-7 cells transiently transfected with the human Y2 receptor cDNA as well as a promiscuous G protein, Gqi5 which ensures that the Y2 receptor couples through a Gq pathway leading to an increase in inositol phosphate turnover.
Phosphatidylinositol turnover—One day after transfection COS-7 cells are incubated for 24 hours with 5 μCi of [3H]-myo-inositol (Amersham, PT6-271) in 1 ml medium supplemented with 10% fetal calf serum, 2 mM glutamine and 0.01 mg/ml gentamicin per well. Cells are washed twice in buffer, 20 mM HEPES, pH 7.4, supplemented with 140 mM NaCl, 5 mM KCl, 1 mM MgSO4, 1 mM CaCl2, 10 mM glucose, 0.05% (w/v) bovine serum; and are incubated in 0.5 ml buffer supplemented with 10 mM LiCl at 37 C for 30 min. After stimulation with various concentrations of peptide for 45 min at 37 C, cells are extracted with 10% ice-cold perchloric acid followed by incubation on ice for 30 min. The resulting supernatants are neutralized with KOH in HEPES buffer, and the generated [3H]-inositol phosphate are purified on Bio-Rad AG 1-X8 anion-exchange resin and counted in a beta counter. Determinations are made in duplicates. EC50 values were calculated using a standard pharmacological data handling software, Prism 3.0 (graphPad Sofware, San Diego, USA). […]

The chains behind the UniProt entries cited, without tags or fusion partners. Where a name states a change or a piece, a line headed by the entry shows the natural chain unless it says otherwise.
UniProt P50391: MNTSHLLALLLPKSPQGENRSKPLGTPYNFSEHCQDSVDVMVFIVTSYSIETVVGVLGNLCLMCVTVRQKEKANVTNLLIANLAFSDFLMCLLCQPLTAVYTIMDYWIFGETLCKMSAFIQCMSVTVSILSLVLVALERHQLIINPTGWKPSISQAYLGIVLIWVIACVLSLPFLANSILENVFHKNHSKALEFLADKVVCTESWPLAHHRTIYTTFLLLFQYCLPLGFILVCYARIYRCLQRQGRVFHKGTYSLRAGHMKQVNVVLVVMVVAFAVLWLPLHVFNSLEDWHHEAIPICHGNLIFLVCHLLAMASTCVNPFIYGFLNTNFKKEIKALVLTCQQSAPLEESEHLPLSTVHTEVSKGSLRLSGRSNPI

[3] = system: colonic damage; settings: animal model for inflammatory bowel disease; cited from earlier work

Substance: PYY: naturally secreted 36 amino acid, C-terminally amidated PP-fold peptide [Peptide YY]
- affinity for Y4 receptors [1]: nanomolar

Substance: PYY3-36
- more potent towards the Y2 receptor than towards the Y4 receptor [2]: more than 10,000 fold
- colonic damage [3]: reduce colonic damage

Source: patent US20110251126A1, “INTESTINAL TREATMENT” (priority 2008, published 2011)
